These results are taken from patent publication US20050187239A1 (priority 2002, published 2005).

For this data set, the system named is gastrointestinal transit in the mouse. To be noted: each drug separately.

The structures appear in SMILES notation.

Turning to `CN1CC[C@]23c4c5ccc(O)c4O[C@H]2[C@@H](O)C=C[C@H]3[C@H]1C5` [Morphine, morphine], the “inhibition of gastrointestinal transit, drug separately” value is “inhibit gastrointestinal transit”.
